A value given as a limit tells only on which side of the number the result lay.

Sequences of proteins named here, by UniProt entry; tags and fusion partners are left off.
UniProt P21917, whole entry: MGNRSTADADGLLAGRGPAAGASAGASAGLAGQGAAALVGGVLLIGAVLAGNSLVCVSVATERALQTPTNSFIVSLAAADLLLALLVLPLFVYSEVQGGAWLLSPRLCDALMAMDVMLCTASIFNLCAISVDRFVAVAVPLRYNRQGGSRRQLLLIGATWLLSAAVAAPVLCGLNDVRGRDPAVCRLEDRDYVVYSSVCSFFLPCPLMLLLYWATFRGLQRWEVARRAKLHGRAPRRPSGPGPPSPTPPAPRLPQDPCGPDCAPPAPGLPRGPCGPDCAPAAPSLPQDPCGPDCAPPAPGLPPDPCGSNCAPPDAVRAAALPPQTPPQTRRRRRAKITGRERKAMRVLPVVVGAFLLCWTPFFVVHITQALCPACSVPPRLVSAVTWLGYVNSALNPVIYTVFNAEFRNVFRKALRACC
UniProt P42866, whole entry: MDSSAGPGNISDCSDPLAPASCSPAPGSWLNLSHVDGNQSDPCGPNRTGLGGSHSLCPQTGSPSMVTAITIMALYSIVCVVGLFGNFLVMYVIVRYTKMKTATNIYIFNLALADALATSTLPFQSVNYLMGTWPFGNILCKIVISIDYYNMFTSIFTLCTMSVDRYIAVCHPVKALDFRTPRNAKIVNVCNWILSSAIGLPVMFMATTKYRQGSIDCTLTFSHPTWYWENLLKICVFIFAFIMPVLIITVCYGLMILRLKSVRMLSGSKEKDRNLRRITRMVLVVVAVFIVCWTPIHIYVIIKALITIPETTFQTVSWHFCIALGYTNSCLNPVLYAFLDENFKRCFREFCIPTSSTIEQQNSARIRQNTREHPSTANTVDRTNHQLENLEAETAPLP

Experiment [1] addresses hD4R (human D4.4) (Homo sapiens, UniProt P21917). The format is binding.
Experiment [2] concerns the target MOR (SNAP-mMOR) (Mus musculus, UniProt P42866). The experiment is described as follows: BRET MOR-mediated Gαi2 protein activation. The format is cell-based. Conditions: read-out: MOR Gi2 activation EC50 (in brackets), HEK 293T. For orientation: BRET reads energy transfer from a luciferase to a nearby fluorophore.

As for `CCC(=O)C(CC(C)N(C)C)(c1ccccc1)c1ccccc1` (centres unmarked) [compound 6, methadone], the “selectivity over D4R” value in experiment [1] is above 10 fold.

Take `CN(C)C(=O)C(CCNCCCCN1CCN(c2cccc(Cl)c2Cl)CC1)(c1ccccc1)c1ccccc1` [compound 28, 4-((4-(4-(2,3-Dichlorophenyl)piperazin-1-yl)butyl)amino)-N,N-dimethyl-2,2-diphenylbutanamide]: the EC50 in experiment [2] was 1110 nM.

What is called EC50 is the midpoint of the concentration-response curve.

(Values after article PMC9308496 (Journal of medicinal chemistry, 2021).)
